Data taken from US20260382588A1, “COMPOUNDS CONTAINING A HYDROXYPHENYL MOIETY AND THEIR USE” (published 2026).

Assays:
PERK = assay: eIF2α phosphorylation and ATF4 protein expression; details: data not shown
Description: Western blotting—All IRE1 signaling analyses were carried out as described previously (S. Lhomond et al., Methods Mol. Biol., 2015, 1292, 177-194). Cells grown on 6 well plates were washed with PBS and lysed with RIPA lysis buffer at 4 °C, over 25 minutes to extract protein. IRE1 and phosphorylated IRE1 were stained using anti-IRE1 antibody (Anti-human; rabbit polyclonal; SantaCruz Biotechnologies, H-190) and pS724-IRE1 antibody (Anti-human; rabbit polyclonal; Abcam, ab48187), respectively. The phosphorylated form of eIF2α was stained with anti-phospho-eIF2α (Ser51) Antibody #9721 (CellSignalling®). Actin was used as a loading control (P-Actin (C4): sc-47778; SantaCruz Biotechnologies). […]
The effect of compounds 28 (Z4P) and 33 (Z4) on RIDD was then tested by interrogating the levels of the known RIDD target Sparc mRNA (46) in U87 cells upon treatment with the transcriptional blocker actinomycin D and the ER stressor tunicamycin. […] The expression of downstream effectors of PERK and ATF6 was evaluated. […] Consequently, to further document the characteristics of compound 33 (Z4) at the protein level, U251 (commonly available GB cell line) and RADH87 (G. Auf et al., Proc Natl Acad Sci USA, 2010, 107, 15553-15558) (human tumor-derived primary GB cell line) cells were treated and their proteome were evaluated. […]

U251 cells = assay: Proteome analysis of treated U251 cells
Description: Proteomic analyses—Untreated and MKC8866 and compound 33 (Z4)-treated (during 48 hours) parental U251 and RADH87 GB cells as well as DN IRE1 U251 and RADH87 cells were lysed with lysis buffer composed of 20 mM Tris pH 8, 1.5 mM EDTA, 150 mM NaCl, 1% Triton X-100, 0.1% SDS, supplemented with proteases and phosphatases inhibitor cocktails (Roche). Total proteins were precipitated with 80% ice-cold acetone. Washed pellet were then denatured with 8 M urea in Tris-HCl 0.1 mM, reduced with 5 mM TCEP for 30 minutes, and then alkylated with 10 mM iodoacetamide for 30 minutes in the dark. […] Samples were analyzed using an Ultimate 3000 nano-RSLC (Thermo Scientific, San Jose California) coupled in line with a LTQ-Orbitrap ELITE mass spectrometer via a nano-electrospray ionization source (Thermo Scientific, San Jose California). Proteins were identified and quantified by database searching using SequestHT (Thermo Fisher Scientific) with Proteome Discoverer 2.4 software (PD2.4, Thermo Fisher Scientific) against Homo sapiens reviewed SwissProt database. Peptides and proteins were filtered with a false discovery rate (FDR) at 1% and their quantification was based on XIC (Extracted Ion Chromatogram). […]

Cc1ccc(C(N)=O)cc1NC(=O)NC(C)CCc1ccc(O)cc1 (racemic)
ATF4 protein expression (PERK): not altered | eIF2α phosphorylation (PERK): not altered | pathways impacted in proteome (U251 cells; 48 hours): impacted on particular pathways such as cell adhesion, circulatory system development, cell locomotion and cell migration | proteome alterations versus cells with genetically blunted IRE1 activity (U251 cells; comparison with DN and Q780stop): phenocopied those observed in cells in which IRE1 activity was genetically blunted
